Test results reported in publication doi:10.1101/2025.11.02.686125v3 (bioRxiv, 2025).

Substance	Endpoint accumulation (luminescence at 60 min) (Msm (luc) cells)	Apparent cytosolic accumulation (luminescence over 60 min) (Mav (luc) cells)
D-cystine-ciprofloxacin-methyl-ester [cys-Cipro]	comparable	–
Linezolid-cystamine-D-cysteine disulfide [cys-Line]	comparable	–
Puromycin-cystamine-D-cysteine disulfide [cys-Puro]	–	highest apparent accumulation
Rifamycin-cystamine-D-cysteine disulfide [cys-Rifa]	slightly higher accumulation	–
